{"sequences": {"note": "Sequences of proteins named here, by UniProt entry; tags and fusion partners are left off. A change or cut given only in a name is not applied to a line headed by its entry.", "UniProt O75582, whole entry, looked up": "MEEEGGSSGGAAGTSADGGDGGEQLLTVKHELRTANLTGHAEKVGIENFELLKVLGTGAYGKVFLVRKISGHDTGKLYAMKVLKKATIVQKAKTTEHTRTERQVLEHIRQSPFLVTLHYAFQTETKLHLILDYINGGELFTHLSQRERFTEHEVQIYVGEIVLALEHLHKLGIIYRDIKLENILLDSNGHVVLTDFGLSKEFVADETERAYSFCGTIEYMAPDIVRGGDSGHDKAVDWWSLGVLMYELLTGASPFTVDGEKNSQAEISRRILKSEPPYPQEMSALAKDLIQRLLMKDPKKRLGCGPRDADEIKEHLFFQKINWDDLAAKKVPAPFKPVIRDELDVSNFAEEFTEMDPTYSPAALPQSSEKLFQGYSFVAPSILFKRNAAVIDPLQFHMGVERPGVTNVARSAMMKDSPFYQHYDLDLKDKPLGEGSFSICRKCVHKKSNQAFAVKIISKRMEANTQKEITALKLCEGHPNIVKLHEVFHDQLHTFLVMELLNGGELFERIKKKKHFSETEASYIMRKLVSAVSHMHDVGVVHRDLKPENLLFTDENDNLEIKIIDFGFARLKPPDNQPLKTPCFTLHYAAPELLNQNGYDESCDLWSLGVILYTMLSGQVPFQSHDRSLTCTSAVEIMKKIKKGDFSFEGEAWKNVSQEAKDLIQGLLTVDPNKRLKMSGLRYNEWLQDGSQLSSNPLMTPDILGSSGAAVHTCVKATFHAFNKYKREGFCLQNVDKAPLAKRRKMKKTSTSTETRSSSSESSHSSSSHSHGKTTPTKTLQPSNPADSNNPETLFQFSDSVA", "UniProt Q96RR4, whole entry, looked up": "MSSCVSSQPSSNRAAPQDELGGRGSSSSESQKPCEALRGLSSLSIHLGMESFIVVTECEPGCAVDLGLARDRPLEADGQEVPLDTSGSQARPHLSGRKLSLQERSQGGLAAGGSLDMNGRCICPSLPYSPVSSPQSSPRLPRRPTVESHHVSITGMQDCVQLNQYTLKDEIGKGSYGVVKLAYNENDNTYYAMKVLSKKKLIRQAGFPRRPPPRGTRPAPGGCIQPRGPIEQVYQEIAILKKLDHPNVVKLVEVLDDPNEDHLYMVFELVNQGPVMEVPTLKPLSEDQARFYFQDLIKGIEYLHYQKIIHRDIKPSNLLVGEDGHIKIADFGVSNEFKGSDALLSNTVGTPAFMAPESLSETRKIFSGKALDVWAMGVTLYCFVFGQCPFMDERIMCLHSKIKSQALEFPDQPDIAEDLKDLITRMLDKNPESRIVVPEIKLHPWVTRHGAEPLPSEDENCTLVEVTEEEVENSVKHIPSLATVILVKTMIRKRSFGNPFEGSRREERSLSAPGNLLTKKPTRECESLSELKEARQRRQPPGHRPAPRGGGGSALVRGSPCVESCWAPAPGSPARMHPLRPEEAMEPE", "UniProt P07332": "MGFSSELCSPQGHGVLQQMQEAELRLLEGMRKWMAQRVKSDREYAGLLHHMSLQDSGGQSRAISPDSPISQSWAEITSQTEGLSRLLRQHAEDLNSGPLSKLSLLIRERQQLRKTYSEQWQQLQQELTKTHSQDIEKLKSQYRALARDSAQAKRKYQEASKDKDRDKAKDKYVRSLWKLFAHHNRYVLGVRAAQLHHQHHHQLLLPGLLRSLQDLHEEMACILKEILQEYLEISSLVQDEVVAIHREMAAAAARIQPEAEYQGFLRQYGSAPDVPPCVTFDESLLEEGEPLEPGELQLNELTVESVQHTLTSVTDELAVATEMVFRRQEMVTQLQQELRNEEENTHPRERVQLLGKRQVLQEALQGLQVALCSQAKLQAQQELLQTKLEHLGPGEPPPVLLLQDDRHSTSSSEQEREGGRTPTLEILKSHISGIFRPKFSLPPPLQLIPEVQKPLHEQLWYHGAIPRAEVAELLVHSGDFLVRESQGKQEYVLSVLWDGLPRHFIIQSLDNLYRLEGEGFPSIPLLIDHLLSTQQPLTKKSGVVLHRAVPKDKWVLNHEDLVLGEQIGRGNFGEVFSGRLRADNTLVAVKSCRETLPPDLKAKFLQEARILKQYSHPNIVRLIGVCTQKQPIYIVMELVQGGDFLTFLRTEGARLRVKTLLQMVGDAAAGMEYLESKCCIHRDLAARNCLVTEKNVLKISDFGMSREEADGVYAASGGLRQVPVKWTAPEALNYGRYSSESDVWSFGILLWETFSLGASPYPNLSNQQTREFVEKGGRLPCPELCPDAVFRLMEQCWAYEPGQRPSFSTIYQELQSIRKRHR", "UniProt Q05397, whole entry, looked up": "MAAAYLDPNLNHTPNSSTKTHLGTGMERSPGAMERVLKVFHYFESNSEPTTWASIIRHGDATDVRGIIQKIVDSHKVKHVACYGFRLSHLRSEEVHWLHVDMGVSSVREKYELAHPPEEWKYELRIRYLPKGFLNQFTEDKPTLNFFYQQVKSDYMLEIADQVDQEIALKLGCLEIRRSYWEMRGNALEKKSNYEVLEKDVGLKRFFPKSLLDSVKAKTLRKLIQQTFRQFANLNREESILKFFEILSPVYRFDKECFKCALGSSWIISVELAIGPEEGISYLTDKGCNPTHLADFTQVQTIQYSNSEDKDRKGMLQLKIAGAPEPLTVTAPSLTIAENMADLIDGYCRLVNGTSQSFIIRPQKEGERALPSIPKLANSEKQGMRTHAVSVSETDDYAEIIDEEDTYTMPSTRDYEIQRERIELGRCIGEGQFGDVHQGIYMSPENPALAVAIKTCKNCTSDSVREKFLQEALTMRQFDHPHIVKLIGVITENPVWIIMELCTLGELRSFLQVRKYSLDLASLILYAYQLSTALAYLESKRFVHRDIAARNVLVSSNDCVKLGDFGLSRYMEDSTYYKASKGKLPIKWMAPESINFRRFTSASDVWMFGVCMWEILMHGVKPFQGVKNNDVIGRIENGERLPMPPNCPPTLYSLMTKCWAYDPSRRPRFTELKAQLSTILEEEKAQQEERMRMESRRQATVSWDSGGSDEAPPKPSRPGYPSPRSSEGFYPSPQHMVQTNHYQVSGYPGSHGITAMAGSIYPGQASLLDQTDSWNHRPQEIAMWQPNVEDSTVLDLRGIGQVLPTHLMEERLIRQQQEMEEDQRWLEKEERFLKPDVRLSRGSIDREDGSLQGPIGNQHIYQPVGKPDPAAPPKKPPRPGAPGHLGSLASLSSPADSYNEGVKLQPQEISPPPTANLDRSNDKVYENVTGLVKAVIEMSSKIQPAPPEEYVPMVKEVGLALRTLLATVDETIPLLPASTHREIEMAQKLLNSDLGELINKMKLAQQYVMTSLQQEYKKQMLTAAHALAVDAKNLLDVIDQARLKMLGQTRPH", "UniProt P11274": "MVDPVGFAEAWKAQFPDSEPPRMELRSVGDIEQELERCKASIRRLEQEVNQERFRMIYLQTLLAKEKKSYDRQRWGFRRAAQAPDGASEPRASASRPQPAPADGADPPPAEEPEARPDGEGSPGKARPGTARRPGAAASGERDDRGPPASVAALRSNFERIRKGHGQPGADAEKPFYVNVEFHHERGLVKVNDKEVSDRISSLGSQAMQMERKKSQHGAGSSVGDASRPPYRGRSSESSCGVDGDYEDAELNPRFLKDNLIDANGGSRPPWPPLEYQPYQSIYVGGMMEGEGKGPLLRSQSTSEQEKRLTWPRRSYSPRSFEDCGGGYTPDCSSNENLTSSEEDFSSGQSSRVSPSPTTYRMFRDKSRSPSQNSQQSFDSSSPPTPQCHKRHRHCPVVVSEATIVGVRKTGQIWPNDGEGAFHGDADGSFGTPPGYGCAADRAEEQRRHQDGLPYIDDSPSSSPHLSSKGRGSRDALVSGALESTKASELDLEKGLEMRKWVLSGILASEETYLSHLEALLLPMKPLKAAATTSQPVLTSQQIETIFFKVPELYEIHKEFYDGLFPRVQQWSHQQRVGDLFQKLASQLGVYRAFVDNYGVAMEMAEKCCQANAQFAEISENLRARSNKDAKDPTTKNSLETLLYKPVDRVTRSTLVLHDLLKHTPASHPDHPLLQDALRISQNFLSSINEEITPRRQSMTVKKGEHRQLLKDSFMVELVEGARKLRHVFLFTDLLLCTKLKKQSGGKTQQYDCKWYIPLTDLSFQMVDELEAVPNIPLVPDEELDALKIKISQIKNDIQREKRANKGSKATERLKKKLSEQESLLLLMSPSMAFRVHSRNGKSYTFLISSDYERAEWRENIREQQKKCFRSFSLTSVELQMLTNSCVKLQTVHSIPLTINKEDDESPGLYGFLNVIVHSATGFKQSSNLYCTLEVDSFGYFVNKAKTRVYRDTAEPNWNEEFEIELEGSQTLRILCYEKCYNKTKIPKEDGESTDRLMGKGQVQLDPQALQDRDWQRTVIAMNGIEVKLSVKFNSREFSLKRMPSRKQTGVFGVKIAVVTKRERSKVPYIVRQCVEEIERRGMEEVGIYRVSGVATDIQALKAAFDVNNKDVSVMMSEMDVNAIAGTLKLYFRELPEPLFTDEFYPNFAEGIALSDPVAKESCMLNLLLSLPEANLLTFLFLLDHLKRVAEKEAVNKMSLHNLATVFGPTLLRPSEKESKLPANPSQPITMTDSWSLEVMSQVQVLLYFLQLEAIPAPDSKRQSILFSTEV", "UniProt Q9UHD2": "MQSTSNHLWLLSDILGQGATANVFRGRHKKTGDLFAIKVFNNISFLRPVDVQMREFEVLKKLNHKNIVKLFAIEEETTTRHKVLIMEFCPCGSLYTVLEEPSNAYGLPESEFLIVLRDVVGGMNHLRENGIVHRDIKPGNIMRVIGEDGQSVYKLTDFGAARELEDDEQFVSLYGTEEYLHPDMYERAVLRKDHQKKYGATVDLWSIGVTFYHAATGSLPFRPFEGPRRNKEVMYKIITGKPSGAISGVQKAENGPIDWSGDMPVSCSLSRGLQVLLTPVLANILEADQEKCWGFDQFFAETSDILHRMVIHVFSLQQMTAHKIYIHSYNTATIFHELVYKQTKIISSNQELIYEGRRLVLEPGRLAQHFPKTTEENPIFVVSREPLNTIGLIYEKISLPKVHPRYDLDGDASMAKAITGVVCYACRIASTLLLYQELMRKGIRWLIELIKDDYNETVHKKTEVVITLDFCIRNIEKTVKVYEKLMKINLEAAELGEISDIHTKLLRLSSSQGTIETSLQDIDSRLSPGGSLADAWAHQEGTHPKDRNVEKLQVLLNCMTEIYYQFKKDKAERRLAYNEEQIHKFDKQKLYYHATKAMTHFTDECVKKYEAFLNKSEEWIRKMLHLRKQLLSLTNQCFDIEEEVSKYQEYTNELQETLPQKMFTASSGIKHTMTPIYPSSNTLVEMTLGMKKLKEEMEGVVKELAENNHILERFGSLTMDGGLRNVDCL", "UniProt Q02750, whole entry": "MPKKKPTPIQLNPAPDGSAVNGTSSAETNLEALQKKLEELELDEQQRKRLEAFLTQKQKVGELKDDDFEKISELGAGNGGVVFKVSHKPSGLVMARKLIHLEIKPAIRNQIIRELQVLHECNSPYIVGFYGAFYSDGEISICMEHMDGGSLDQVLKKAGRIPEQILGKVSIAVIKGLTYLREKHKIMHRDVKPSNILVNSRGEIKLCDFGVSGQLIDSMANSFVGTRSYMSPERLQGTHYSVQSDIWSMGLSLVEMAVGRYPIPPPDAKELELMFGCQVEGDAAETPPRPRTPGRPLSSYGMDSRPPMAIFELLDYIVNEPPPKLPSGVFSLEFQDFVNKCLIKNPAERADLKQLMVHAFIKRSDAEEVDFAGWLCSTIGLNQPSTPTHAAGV"}, "source": "the supplement of paper PMC11403291", "experiment_in_all_cases": "apparent dissociation constant pKd app (kinobead competition) (-log10(M)); higher = stronger binding", "key": {"RPS6KA5": {"biological_target": "RPS6KA5 (UniProt O75582)"}, "PRKD1": {"biological_target": "T1, PRKD1 (UniProt Q15139)", "T1 sequence (whole entry)": "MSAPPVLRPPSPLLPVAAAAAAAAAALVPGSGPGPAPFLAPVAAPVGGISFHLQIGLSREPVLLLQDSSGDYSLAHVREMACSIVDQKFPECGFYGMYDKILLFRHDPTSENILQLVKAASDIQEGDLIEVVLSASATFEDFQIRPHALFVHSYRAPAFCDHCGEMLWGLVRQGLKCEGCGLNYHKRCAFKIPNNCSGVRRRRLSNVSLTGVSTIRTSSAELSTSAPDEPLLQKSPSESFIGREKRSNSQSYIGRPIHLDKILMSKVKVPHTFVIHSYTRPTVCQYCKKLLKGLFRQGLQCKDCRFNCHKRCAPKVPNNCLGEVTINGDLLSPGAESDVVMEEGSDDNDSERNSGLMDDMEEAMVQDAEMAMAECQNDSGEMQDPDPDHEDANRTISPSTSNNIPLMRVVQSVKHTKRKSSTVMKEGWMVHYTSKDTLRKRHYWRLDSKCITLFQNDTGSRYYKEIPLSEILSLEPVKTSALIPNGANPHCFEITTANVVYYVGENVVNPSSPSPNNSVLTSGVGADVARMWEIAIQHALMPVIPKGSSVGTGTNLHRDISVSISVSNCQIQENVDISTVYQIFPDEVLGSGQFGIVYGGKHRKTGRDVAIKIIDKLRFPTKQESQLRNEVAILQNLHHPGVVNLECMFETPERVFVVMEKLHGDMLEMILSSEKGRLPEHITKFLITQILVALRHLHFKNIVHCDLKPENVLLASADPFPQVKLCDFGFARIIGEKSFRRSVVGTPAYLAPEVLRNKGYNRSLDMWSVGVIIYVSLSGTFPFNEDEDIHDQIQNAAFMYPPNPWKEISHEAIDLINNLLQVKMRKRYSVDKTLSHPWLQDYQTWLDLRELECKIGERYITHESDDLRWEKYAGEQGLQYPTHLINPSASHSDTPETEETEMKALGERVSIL"}, "CAMKK2": {"biological_target": "CAMKK2 (UniProt Q96RR4)"}, "FES": {"biological_target": "FES (UniProt P07332)"}, "STRADA": {"biological_target": "T2, STRADA (UniProt Q7RTN6)", "T2 sequence (whole entry)": "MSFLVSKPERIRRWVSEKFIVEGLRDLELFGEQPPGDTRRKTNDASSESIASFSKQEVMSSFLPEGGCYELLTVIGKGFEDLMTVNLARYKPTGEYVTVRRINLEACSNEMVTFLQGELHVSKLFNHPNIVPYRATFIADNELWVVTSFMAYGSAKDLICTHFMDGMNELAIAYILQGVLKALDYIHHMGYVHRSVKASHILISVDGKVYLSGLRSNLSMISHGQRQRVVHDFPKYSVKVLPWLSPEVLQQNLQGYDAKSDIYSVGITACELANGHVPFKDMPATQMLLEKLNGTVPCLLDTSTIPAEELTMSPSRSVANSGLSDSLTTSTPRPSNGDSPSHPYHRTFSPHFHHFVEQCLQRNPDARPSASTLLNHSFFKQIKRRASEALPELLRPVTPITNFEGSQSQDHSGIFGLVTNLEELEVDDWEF"}, "PTK2": {"biological_target": "PTK2 (UniProt Q05397)"}, "BCR": {"biological_target": "BCR (UniProt P11274)"}, "TBK1": {"biological_target": "TBK1 (UniProt Q9UHD2)"}, "MAP2K1": {"biological_target": "MAP2K1 (UniProt Q02750)"}, "ADCK1": {"biological_target": "T3, ADCK1 (UniProt Q86TW2)", "T3 sequence (whole entry)": "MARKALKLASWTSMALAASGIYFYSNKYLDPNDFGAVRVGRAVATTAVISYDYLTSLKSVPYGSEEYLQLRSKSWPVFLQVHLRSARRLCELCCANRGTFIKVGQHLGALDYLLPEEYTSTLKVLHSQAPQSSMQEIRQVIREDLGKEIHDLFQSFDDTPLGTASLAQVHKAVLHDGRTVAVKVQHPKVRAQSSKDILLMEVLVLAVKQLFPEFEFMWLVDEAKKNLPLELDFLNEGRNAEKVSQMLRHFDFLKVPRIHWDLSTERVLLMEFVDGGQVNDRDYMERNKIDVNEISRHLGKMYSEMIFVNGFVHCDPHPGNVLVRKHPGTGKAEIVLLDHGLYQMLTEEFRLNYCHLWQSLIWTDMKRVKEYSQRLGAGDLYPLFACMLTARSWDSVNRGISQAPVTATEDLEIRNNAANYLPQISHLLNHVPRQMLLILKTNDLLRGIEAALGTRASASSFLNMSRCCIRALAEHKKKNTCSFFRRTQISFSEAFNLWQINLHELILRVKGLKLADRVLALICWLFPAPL"}, "MAP2K4": {"biological_target": "T4, MAP2K4 (UniProt P45985)", "T4 sequence (whole entry)": "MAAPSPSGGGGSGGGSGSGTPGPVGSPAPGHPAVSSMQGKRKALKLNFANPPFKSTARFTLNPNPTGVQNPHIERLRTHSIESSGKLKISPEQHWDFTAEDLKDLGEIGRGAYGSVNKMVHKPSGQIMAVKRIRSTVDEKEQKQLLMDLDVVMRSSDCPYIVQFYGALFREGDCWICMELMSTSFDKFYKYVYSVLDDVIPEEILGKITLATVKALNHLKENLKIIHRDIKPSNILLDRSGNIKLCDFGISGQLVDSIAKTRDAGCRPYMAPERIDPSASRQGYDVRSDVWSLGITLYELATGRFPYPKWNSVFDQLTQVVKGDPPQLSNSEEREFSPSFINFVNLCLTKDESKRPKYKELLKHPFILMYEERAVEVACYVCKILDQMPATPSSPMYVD"}}, "note": "± gives the standard deviation of the averaged measurements.", "data": [{"smiles": "NC(=O)c1cccc2cn(-c3ccc([C@@H]4CCCNC4)cc3)nc12", "note": "[Niraparib]", "values": [{"measurement": "apparent dissociation constant pKd app (-log10)", "setting": "RPS6KA5", "value": "< 4.5"}, {"measurement": "apparent dissociation constant pKd app (-log10)", "setting": "PRKD1", "value": "< 4.6"}, {"measurement": "apparent dissociation constant pKd app (-log10)", "setting": "CAMKK2", "value": "< 4.8"}, {"measurement": "apparent dissociation constant pKd app (-log10)", "setting": "FES", "value": "< 4.7"}, {"measurement": "apparent dissociation constant pKd app (-log10)", "setting": "STRADA", "value": "< 4.5"}, {"measurement": "apparent dissociation constant pKd app (-log10)", "setting": "PTK2", "value": "< 4.8"}, {"measurement": "apparent dissociation constant pKd app (-log10)", "setting": "BCR", "value": "< 4.8"}, {"measurement": "apparent dissociation constant pKd app (-log10)", "setting": "TBK1", "value": "< 4.7"}, {"measurement": "apparent dissociation constant pKd app (-log10)", "setting": "MAP2K1", "value": "< 4.5"}, {"measurement": "apparent dissociation constant pKd app (-log10)", "setting": "ADCK1", "value": "4.75 ± 0.071"}, {"measurement": "apparent dissociation constant pKd app (-log10)", "setting": "MAP2K4", "value": "< 4.6"}]}, {"smiles": "O=C(c1cc(Cc2n[nH]c(=O)c3ccccc23)ccc1F)N1CCN(C(=O)C2CC2)CC1", "note": "[Olaparib]", "values": [{"measurement": "apparent dissociation constant pKd app (-log10)", "setting": "RPS6KA5", "value": "< 4.5"}, {"measurement": "apparent dissociation constant pKd app (-log10)", "setting": "PRKD1", "value": "< 4.6"}, {"measurement": "apparent dissociation constant pKd app (-log10)", "setting": "CAMKK2", "value": "< 4.8"}, {"measurement": "apparent dissociation constant pKd app (-log10)", "setting": "FES", "value": "< 4.7"}, {"measurement": "apparent dissociation constant pKd app (-log10)", "setting": "STRADA", "value": "< 4.5"}, {"measurement": "apparent dissociation constant pKd app (-log10)", "setting": "PTK2", "value": "< 4.8"}, {"measurement": "apparent dissociation constant pKd app (-log10)", "setting": "BCR", "value": "< 4.8"}, {"measurement": "apparent dissociation constant pKd app (-log10)", "setting": "TBK1", "value": "< 4.7"}, {"measurement": "apparent dissociation constant pKd app (-log10)", "setting": "MAP2K1", "value": "< 4.5"}, {"measurement": "apparent dissociation constant pKd app (-log10)", "setting": "ADCK1", "value": "< 4.5"}, {"measurement": "apparent dissociation constant pKd app (-log10)", "setting": "MAP2K4", "value": "< 4.6"}]}, {"smiles": "Cn1ncnc1[C@H]1c2n[nH]c(=O)c3cc(F)cc(c23)N[C@@H]1c1ccc(F)cc1", "note": "[Talazoparib]", "values": [{"measurement": "apparent dissociation constant pKd app (-log10)", "setting": "RPS6KA5", "value": "< 4.5"}, {"measurement": "apparent dissociation constant pKd app (-log10)", "setting": "PRKD1", "value": "< 4.6"}, {"measurement": "apparent dissociation constant pKd app (-log10)", "setting": "CAMKK2", "value": "< 4.8"}, {"measurement": "apparent dissociation constant pKd app (-log10)", "setting": "FES", "value": "< 4.7"}, {"measurement": "apparent dissociation constant pKd app (-log10)", "setting": "STRADA", "value": "< 4.5"}, {"measurement": "apparent dissociation constant pKd app (-log10)", "setting": "PTK2", "value": "< 4.8"}, {"measurement": "apparent dissociation constant pKd app (-log10)", "setting": "BCR", "value": "< 4.8"}, {"measurement": "apparent dissociation constant pKd app (-log10)", "setting": "TBK1", "value": "< 4.7"}, {"measurement": "apparent dissociation constant pKd app (-log10)", "setting": "MAP2K1", "value": "< 4.5"}, {"measurement": "apparent dissociation constant pKd app (-log10)", "setting": "ADCK1", "value": "< 4.5"}, {"measurement": "apparent dissociation constant pKd app (-log10)", "setting": "MAP2K4", "value": "< 4.6"}]}]}
